Measured values: patent US7375243B2, “Method for preparation of amino acid chelate” (MD Bioalpha Co., Ltd., priority 2002, dated 2008)
Values belong to the substance of their own block, whether it stands above or below them.

Tests used:
calcium-starved rats = experiment: Test of the degree of absorption of Ca-supplying agents in calcium-starved rats
Description: 3-week old Sprague-Dawley male rats (Daehan Biolink Co., Ltd., Korea) were employed for the present experiment after adjustment to an elementary diet These rats were divided into a normal group and an experimental group. The diet for the normal group (“normal diet”) was prepared based upon AIN-76 diet composition, whereas the diet for the experimental group (“Ca-flee diet” or “experimental diet”) was prepared by replacing a mineral mixture in the normal diet composition with a Ca deficient mineral mixture. […] These Ca-supplying agents were orally administered to each group along with the Ca-free diet for one week before the rats were sacrificed.
The concentration of Ca-supplying agent in the oral administration was ⅓ of the concentration of calcium in AIN-76 mineral mixture, which corresponds to 10 times the recommended amount for adult males. 3× distilled water was used for preparation of the experimental diet and was also was fed to rats for maintenance. The compositions of diets administered to the normal group and experimental groups, respectively, are described in TABLE 8 as below.
The abdomens of the rats were cut open under ether anesthesia, then blood was harvested from abdominal aorta, and major organs such as liver, kidney, spleen, etc. were […], followed by the extraction of fibula. The blood was centrifuged at 3000 rpm for 10 minutes to separate serum. Each organ and bone was trimmed and washed with normal saline and moisture on the surface thereof was removed to measure the weight and length thereof.
The content of calcium in serum and urine was measured by Calcium Reagent Arsenazo III kit (Sigma Corp., U.S.A). In order to measure the content of calcium in feces, the feces (sample) was put in a Pyrex beaker and the weight thereof was measured to 0.1 mg unit, then 5 ml of HNO3 and 2 ml of H2O2 were added and the beaker was left uncovered on a hot plate. The acid-digested sample was cooled and 2 ml of H2O2 was added thereto, followed by heating. Next, the acid was sufficiently volatilized to make the concentration of HNO3 to 1-5%, followed by the analysis with ICP-AES (inductively Coupled Plasma Atomic Emission Spectrometer). The condition for analysis is given below. • Model: Jobin Yvon 138 Ultrace • Source: Argon plasma (6000 K) • Spectral range: 160-800 nm • Resolution: 0.005 nm (UV) • Detection limit: 1×ppb˜100×ppb • Wavelength for analysis: 393.366 nm 3. Effect On Weight of Major Organs

Fe-starved rats = experiment: Effect of Fe-supplying agents on the absorption of Fe in Fe-starved rats
Description: 3-week old Sprague-Dawley male rats (Daehan Biolink Co., Ltd., Korea) were employed for the present experiment after application of an elementary diet for one week. These rats were divided into a normal group and an experimental group. The diet for the normal group (“normal diet”) was prepared based upon AIN-76 diet composition, whereas the diet for the experimental group (“Fe-free diet” or “experimental diet”) was prepared by replacing a mineral mixture in the normal diet composition with a Fe-deficient mineral mixture. […] These Fe-supplying agents were orally administered to rats along with the experimental diet for one week before the rats were sacrificed.
The concentration of Fe-supplying agent for the oral administration was 10 times the recommended amount for adult males. 3× distilled water was used for preparation of the experimental diet and was fed to rats for maintenance. The compositions of diets administered to the normal group and experimental group, respectively, are described in TABLE 14 below.
Rats were adapted to a cage for one week before the start of the experiment, and their feces were collected for a final 3 days. On the final day, the abdomen was cut open under ether anesthesia, then blood was harvested from abdominal aorta, and major organs such as liver, kidney, spleen, etc. were extracted. […] Each organ was trimmed and washed with normal saline, then moisture on the surface thereof was removed to measure the weight and length.
CBC (Complete Blood Count: Red blood cell; RBC, white blood cell; WBC, Hematocrits; HCT, Hemoglobin; Hb) was measured from the anticoagulated blood, and IRON and TIBC Total Iron Binding Capacity) were measured from the blood serum. CBC was measured by an automatic analyzer (ADVIA 120, Bayer, U.S.A). As reagents, Isoton III (Beckman Coulter, U.S.A), Coulter clenz (Beckman Coulter), Lyse S III (Beckman Coulter), 4% sodium hypochloride-solution (Beckman Coulter) and 4C-plus (Beckman Coulter), Scatter Pak (Beckman Coulter) were used.
All data obtained in the present experiment were expressed with the mean standard error using the SAS program. T-test in each group was carried out at a range of P<0.05 by Duncan's multiple comparison test.

[1] = orange juice composition of TABLE 5, 2% chelate, stored for a long time
[2] = Ca-supplying agent orally for one week with Ca-free diet
[3] = Fe-supplying agent orally for one week with Fe-free diet

Ca excretion in feces (calcium-starved rats; Ca intake 96 mg/3days): 35.39 mg/3days | Relative absorption of calcium (calcium-starved rats; Ca intake 96 mg/3days): 65.9% | Kidney weight (calcium-starved rats; [2]): 8.40 ± 0.26 mg/BW | Spleen weight (calcium-starved rats; [2]): 3.00 ± 0.00 mg/BW | Concentration of calcium in urine (calcium-starved rats; oral for one week): 0.22 ± 0.04 mg/dL | Concentration of serum-calcium in blood collected from eyeball (calcium-starved rats; oral for one week, blood from eyeball): 11.24 ± 0.85 mg/dL
Substance: calcium-aspartic acid chelate [Asp-Ca]

Fecal Fe excretion (Fe-starved rats; Fe intake 1500 μg/3days): 1000.6 μg/3days | Relative iron absorption (Fe-starved rats; Fe intake 1500 μg/3days): 50.2% | Kidney weight (Fe-starved rats; [3]): 7.50 ± 0.22 mg/BW | Spleen weight (Fe-starved rats; [3]): 3.00 ± 0.15 mg/BW | Liver weight (Fe-starved rats; Fe-supplying agent orally for one week with Fe-free diet (1% heme 50, 10% Fe-Asp 5 mg/ml/day)): 40.60 ± 1.00 mg/BW | IRON in serum (Fe-starved rats; oral for one week): 175.2 ± 24.61 µg/dL
Substance: iron-aspartic acid chelate [Fe-Asp]

formation of precipitates [1]: no precipitates were formed
Substance: Seaweed Calcium-Aspartic Acid Chelate [EXAMPLE 9]
